In the assay the target is PIK3CB (Human) (UniProt P42338). As to conditions: platelet.

Amino acid sequences for entries named in this document (tags omitted). A change or cut given only in a name is not applied to a line headed by its entry.
UniProt P42338: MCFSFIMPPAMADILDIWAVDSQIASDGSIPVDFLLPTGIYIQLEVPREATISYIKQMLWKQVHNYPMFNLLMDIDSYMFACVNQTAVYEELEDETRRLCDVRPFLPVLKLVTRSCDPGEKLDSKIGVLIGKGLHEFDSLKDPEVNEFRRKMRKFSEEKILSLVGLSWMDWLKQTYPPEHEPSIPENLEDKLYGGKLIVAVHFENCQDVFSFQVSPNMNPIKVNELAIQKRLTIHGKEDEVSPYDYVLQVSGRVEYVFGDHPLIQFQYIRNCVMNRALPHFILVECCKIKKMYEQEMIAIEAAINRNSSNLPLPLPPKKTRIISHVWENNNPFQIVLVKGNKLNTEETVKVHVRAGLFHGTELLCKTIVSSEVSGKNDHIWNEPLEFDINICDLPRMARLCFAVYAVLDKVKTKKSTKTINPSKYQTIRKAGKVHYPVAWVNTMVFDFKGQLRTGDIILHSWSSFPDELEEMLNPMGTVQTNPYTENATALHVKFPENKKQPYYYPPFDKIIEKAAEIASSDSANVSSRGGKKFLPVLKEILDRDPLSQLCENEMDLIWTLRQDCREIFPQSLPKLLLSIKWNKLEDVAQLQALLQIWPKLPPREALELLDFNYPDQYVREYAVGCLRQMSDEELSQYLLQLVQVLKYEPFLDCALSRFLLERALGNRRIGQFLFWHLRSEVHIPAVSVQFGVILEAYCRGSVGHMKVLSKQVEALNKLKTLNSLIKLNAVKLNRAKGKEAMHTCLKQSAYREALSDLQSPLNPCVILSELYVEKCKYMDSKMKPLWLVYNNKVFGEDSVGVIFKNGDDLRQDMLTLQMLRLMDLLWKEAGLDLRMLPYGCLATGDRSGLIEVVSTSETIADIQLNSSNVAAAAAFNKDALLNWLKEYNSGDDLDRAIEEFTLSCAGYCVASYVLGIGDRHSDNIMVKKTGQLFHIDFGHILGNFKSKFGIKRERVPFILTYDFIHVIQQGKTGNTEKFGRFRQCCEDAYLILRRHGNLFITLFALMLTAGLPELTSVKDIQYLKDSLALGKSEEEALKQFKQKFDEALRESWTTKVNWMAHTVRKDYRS

IC50 data for one compound are collected here from the Kinase Knowledgebase extract (Sharma et al. 2016).

For `Cc1cc(C(C)Nc2ccccc2)c2nc(N3CCOCC3)cc(=O)n2c1` (stereo unspecified), the 50% inhibitory concentration (IC50) (in general, the concentration that gives 50% inhibition) lay in the range of 50 to 100 nM.
